Measured values reported in patent US20130330358A1, “CRYSTAL STRUCTURE AND PEPTIDE INHIBITORS OF HAUSP DEUBIQUITINASE” (priority 2011, published 2013).

Chains of the proteins cited; added tags and fusions are not shown. Residues count along the entry.
UniProt Q93009, 62-205: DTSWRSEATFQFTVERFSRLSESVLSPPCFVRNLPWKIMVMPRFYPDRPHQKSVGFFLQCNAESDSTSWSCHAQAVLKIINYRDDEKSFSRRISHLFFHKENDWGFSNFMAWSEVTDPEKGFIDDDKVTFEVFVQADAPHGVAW

Experiments:
[1] = target: T1, HAUSP TRAF domain (Homo sapiens, UniProt Q93009); experiment: Competitive ITC: vIRF4^202-216 titrated into cellular substrate peptide-TRAF mixtures; type: binding
T1 construct: HAUSP^62-205, and HAUSP^62-560 were fused to a hexahistidine-tag2 and expressed in E. coli BL21 (DE3) RIPL cells; hexahistidine (cleaved yes); made in house; host or cells: E. coli BL21 (DE3) RIPL

[2] = target: T2, HAUSP TRAF domain HAUSP^62-205 (Homo sapiens, UniProt Q93009); experiment: biochemical; type: binding
T2 construct: HAUSP^62-205, and HAUSP^62-560 were fused to a hexahistidine-tag2 and expressed in E. coli BL21 (DE3) RIPL cells; hexahistidine (cleaved yes); made in house; host or cells: E. coli BL21 (DE3) RIPL
Experimental: FIG. 5. Typical isothermal titration calorimetric measurements of the interactions between the HAUSP TRAF domain and the vIRF4 protein derivatives or other peptides. Purified proteins and synthesized peptides were reconstituted in 150 mM NaCl and 10 mM HEPES (pH 7.0). The calorimetric assays were performed using a VPITC system. All experiments were carried out with a stirring speed of 300 rpm at 20° C., and the thermal power was recorded every 10 s. Data were analyzed using the ORIGIN software package (version 7.0). […] Each titration against the HAUSP TRAF domain is indicated in each panel.
Purified proteins and synthesized peptides (Peptron Inc., Deajeon, Korea) were reconstituted in 150 mM NaCl and 10 mM HEPES (pH 7.0). The calorimetric assays were performed using a VP-ITC system (MicroCal Inc., Northampton, Mass.). Samples were degassed by vacuum aspiration for 15 min prior to loading. All experiments were carried out with a stirring speed of 300 rpm at 20° C., and the thermal power was recorded every 10 s. Data were analyzed using the ORIGIN software package (version 7.0) supplied with the instrument. […]

| SMILES | Kd ([1]; vIRF4^202-216 to MDM2^137-152-TRAF) | Kd ([1]; vIRF4^202-216 to p53^350-364-TRAF) | Kd ([1]; vIRF4^202-216 to p53^355-369-TRAF) | Kd [2] | fold decrease in TRAF binding affinity ([2]; compared with the vIRF4^202-216 peptide) |
| --- | --- | --- | --- | --- | --- |
| CC[C@H](C)[C@H](NC(=O)[C@H](Cc1c[nH]c2ccccc12)NC(=O)[C@@H](NC(=O)[C@@H](N)CO)C(C)C)C(=O)N1CCC[C@H]1C(=O)N[C@H](C(=O)N[C@@H](CC(N)=O)C(=O)N[C@@H](CCC(=O)O)C(=O)NCC(=O)N[C@@H](C)C(=O)N[C@@H](CO)C(=O)N[C@H](C(=O)N[C@@H](CO)C(=O)NCC(=O)N[C@@H](CCSC)C(=O)O)[C@@H](C)O)C(C)C [vIRF4^202-216] | 92 nM | 23 nM | 28 nM |  |  |
| CSCC[C@H](NC(=O)CNC(=O)[C@H](CO)NC(=O)[C@@H](NC(=O)[C@H](CO)NC(=O)[C@H](C)NC(=O)CNC(=O)[C@@H](N)CCC(=O)O)[C@@H](C)O)C(=O)O [vIRF4^209-216] |  |  |  | 9570 ± 190 nM | 25 fold |
